From ChEMBL document CHEMBL1152196, “Benzimidazole- and benzoxazole-based inhibitors of Rho kinase” (Bioorg Med Chem Lett, 2008)

Sequences of proteins named here, by UniProt entry; tags and fusion partners are left off. A change or cut given only in a name is not applied to a line headed by its entry.
UniProt O75116: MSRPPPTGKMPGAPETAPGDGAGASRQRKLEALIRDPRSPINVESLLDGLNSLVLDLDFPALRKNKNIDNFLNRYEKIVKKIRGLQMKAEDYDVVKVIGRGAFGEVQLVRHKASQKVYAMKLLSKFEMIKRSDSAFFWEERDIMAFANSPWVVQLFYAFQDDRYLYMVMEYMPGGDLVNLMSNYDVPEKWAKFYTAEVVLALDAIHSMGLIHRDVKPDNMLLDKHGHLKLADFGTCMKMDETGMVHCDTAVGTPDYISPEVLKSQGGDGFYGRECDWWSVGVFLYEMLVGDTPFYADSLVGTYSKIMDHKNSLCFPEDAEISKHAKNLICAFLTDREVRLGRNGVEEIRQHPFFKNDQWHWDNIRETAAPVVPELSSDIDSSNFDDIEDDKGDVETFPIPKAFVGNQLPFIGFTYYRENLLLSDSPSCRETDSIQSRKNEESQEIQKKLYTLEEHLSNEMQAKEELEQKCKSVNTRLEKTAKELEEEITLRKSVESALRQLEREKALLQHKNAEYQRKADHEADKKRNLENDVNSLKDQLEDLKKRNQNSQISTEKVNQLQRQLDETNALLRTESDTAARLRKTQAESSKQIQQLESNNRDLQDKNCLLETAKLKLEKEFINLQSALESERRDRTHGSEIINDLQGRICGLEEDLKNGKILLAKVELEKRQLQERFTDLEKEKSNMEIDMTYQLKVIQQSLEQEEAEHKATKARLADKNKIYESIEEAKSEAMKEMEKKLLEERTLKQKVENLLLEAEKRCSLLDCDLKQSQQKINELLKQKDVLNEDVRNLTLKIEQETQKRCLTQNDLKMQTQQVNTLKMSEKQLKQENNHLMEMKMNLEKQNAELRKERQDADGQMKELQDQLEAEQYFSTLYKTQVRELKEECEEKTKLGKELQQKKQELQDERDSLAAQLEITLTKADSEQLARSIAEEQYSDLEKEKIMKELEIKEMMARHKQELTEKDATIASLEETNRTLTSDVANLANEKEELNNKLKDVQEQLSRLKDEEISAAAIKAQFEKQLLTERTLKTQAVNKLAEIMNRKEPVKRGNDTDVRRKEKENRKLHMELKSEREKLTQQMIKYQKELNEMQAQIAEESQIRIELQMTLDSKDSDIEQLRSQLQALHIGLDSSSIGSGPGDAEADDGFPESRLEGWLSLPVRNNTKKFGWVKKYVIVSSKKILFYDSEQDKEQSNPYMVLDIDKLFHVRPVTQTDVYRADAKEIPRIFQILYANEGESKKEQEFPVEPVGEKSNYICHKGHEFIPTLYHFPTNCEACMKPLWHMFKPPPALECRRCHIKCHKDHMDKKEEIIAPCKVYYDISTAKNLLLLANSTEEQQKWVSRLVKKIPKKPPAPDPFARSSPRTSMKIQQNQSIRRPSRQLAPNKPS

Target: Rho-associated protein kinase 2 (Homo sapiens, UniProt O75116)
Test: Inhibition of ROCK2

How did the IC50 turn out when `COc1ccc2c(c1)CC(c1nc3ccc(-c4ccnc(N)n4)cc3[nH]1)CO2` (stereo unspecified) was run?
The IC50 was 2 nM.
